Reference: published antibiotic growth screens (doi:10.1038/s41589-023-01349-8)
This is one part of the list.

Each compound was assayed on A. baumannii ATCC 17978 (assay: relative growth (fraction of control); higher = less inhibition). Conditions: 50 µM.

Question: For `CCCNC(=O)[C@@]1(Sc2ccc(C)cc2)CC(=O)N(Cc2cc(C(F)(F)F)cc(C(F)(F)F)c2)[C@@H]1c1ccc(CO)cc1I`, which relative growth is on record?
Answer: The relative growth was 1.1.

Question: With `CN1CCN(C(=O)C[C@@H]2CC[C@H]3[C@@H](COC[C@H](O)CN3C(=O)C3CCCC3)O2)CC1` as the compound, how does the relative growth read?
Answer: Its relative growth is 0.905.

Question: With `c1ccc2c(-c3cn[nH]c3)ccnc2c1` as the compound, how does the relative growth read?
Answer: Its relative growth is 0.822.

Question: Which relative growth does the source give for `CCN(CC)c1nc(C#N)nc(OC)n1` here?
Answer: Its relative growth is 1.05.

Question: How did the relative growth turn out when `O=C(C[C@H]1C=C[C@@H](NC(=O)c2cccnc2)[C@H](CO)O1)NCCN1CCCCC1` was run?
Answer: Its relative growth is 1.01.

Question: How did the relative growth turn out when `[O-][NH2+][O-]` was run?
Answer: The relative growth was 0.873.

Question: For `C[C@@H]1[C@@H]([Si](C)(C)F)[C@H](CC(=O)N(CCO)Cc2ccccc2)O[C@@]12C(=O)N(c1ccccc1)c1ccccc12`, which relative growth is on record?
Answer: The relative growth was 0.949.

Question: With `CO[C@@H](CN(C)S(=O)(=O)c1ccc(F)cc1)[C@@H](C)CN([C@@H](C)CO)S(=O)(=O)c1cccc(Cl)c1` as the compound, how does the relative growth read?
Answer: The relative growth was 0.742.

Question: For `CO[C@H]1CN(C)C(=O)c2cc(NC(=O)C3CCOCC3)ccc2OC[C@@H](C)N(Cc2cccnc2)C[C@@H]1C`, which relative growth is on record?
Answer: Its relative growth is 1.01.

Question: Which relative growth does the source give for `CN1CCN(C(=O)C[C@H]2CC[C@H](NC(=O)Cc3ccccn3)[C@@H](CO)O2)CC1` here?
Answer: Its relative growth is 0.951.

Question: How did the relative growth turn out when `CC1OC1P(=O)([O-])[O-].[Ca+2]` (stereo unspecified) was run?
Answer: The relative growth was 1.08.

Question: For `Nc1nnc(SCC(=O)N2CCOCC2)[nH]1`, which relative growth is on record?
Answer: Its relative growth is 1.12.

Question: For `Cc1ccc(Nc2nc(-c3ccc(C)cc3)c(C)s2)cc1`, which relative growth is on record?
Answer: Its relative growth is 0.999.

Question: `C[C@@H](NC(=O)C[C@@H]1CC[C@@H](NC(=O)CN2CCOCC2)[C@@H](CO)O1)c1ccccc1` was tested. Which relative growth did it give?
Answer: Its relative growth is 1.12.

Question: `C[C@H](CO)N1C[C@H](C)[C@@H](CN(C)Cc2ccc3c(c2)OCO3)Oc2ncc(C#CCN(C)C)cc2C1=O` was tested. Which relative growth did it give?
Answer: The relative growth was 0.963.

Question: `CN1CCN(C(=O)C[C@H]2C=C[C@@H](NC(=O)Cc3ccccn3)[C@H](CO)O2)CC1` was tested. Which relative growth did it give?
Answer: The relative growth was 1.05.

Question: Which relative growth does the source give for `COc1ccc(N2CCCS2(=O)=O)cc1N` here?
Answer: The relative growth was 1.07.

Question: `CCn1c(=O)cc(N2CCC(C)CC2)[nH]c1=O` was tested. Which relative growth did it give?
Answer: Its relative growth is 1.04.

Question: With `O=C(COc1ccccc1)Nc1nnc[nH]1` as the compound, how does the relative growth read?
Answer: The relative growth was 0.943.

Question: Which relative growth does the source give for `CCC1(c2ccccc2)NC(=O)N(C)C1=O` (stereo unspecified) here?
Answer: Its relative growth is 1.25.

Question: With `ON/C=N\c1nonc1-c1cccnc1` as the compound, how does the relative growth read?
Answer: Its relative growth is 1.17.

Question: Which relative growth does the source give for `C[C@@H]1CN([C@@H](C)CO)S(=O)(=O)c2ccc(C#CCN(C)C)cc2O[C@@H]1CN(C)C(=O)CN(C)C` here?
Answer: Its relative growth is 0.835.

Question: Which relative growth does the source give for `OC[C@]1(O)OC[C@@H](O)[C@H](O)[C@@H]1O` here?
Answer: The relative growth was 0.911.

Question: With `CC(NCCc1ccc(O)cc1)C(O)c1ccc(O)cc1.Cl` (stereo unspecified) as the compound, how does the relative growth read?
Answer: The relative growth was 1.02.

Question: `CN1CCN(C2=Nc3ccccc3Oc3ccc(Cl)cc32)CC1.O=C(O)CCC(=O)O` was tested. Which relative growth did it give?
Answer: The relative growth was 1.15.

Question: `CCN(CC)CCc1nc(-c2ccccc2)no1.O=C(O)CC(O)(CC(=O)O)C(=O)O` was tested. Which relative growth did it give?
Answer: Its relative growth is 1.15.

Question: With `N[C@@H](CCC(=O)N[C@@H](CS)C(=O)NCC(=O)O)C(=O)O` as the compound, how does the relative growth read?
Answer: The relative growth was 1.16.

Question: For `COc1cc(C(=O)NCCCCCC(=O)O)cc(OC)c1OC`, which relative growth is on record?
Answer: Its relative growth is 1.12.

Question: `CC(=O)N1C(=O)N(C(C)=O)[C@@H](O)[C@H]1O` was tested. Which relative growth did it give?
Answer: Its relative growth is 1.04.

Question: With `C[C@@H]1CN([C@H](C)CO)S(=O)(=O)c2ccc(-c3ccc(C(=O)N(C)C)cc3)cc2O[C@@H]1CN(C)C(=O)C1CC1` as the compound, how does the relative growth read?
Answer: The relative growth was 1.08.

Question: With `O=C1c2ccncc2C(=O)N1CO` as the compound, how does the relative growth read?
Answer: Its relative growth is 0.957.

Question: How did the relative growth turn out when `Cn1cnc(S(=O)(=O)N[C@H]2CC[C@@H](CC(=O)N3CCN(c4ccccc4)CC3)O[C@@H]2CO)c1` was run?
Answer: The relative growth was 0.96.

Question: `COC(=O)CCn1cc(F)c(N)nc1=O` was tested. Which relative growth did it give?
Answer: Its relative growth is 1.07.

Question: With `C=CC[C@@H](CC(=O)N(CCO)Cc1ccccc1)C(=O)N[C@H](COC(=O)[C@H](CC=C)CC(=O)OC(C)(C)C)Cc1c[nH]c2ccccc12` as the compound, how does the relative growth read?
Answer: Its relative growth is 0.822.

Question: `Cc1ccc(C(=O)c2ccc(Oc3ccccc3)cc2)cc1` was tested. Which relative growth did it give?
Answer: The relative growth was 1.03.

Question: How did the relative growth turn out when `O=C(C[C@H]1C=C[C@H](NC(=O)c2cccnc2)[C@@H](CO)O1)NCc1ccncn1` was run?
Answer: The relative growth was 1.1.

Question: Which relative growth does the source give for `CSc1nc(C)cc(NC(N)=O)n1` here?
Answer: The relative growth was 1.18.

Question: With `CO[C@@]1(C(=O)NN)COc2ccccc2O1` as the compound, how does the relative growth read?
Answer: The relative growth was 0.911.

Question: With `Cc1ccc(S(=O)(=O)N(c2cccc(-n3cc(CCC(=O)NO)nn3)c2)S(=O)(=O)c2ccc(C)cc2)cc1` as the compound, how does the relative growth read?
Answer: Its relative growth is 0.812.

Question: `O=C(C[C@@H]1CC[C@@H]2[C@H](COC[C@H](O)CN2C(=O)c2ccc(F)cc2)O1)NCCCN1CCOCC1` was tested. Which relative growth did it give?
Answer: The relative growth was 1.02.

Question: How did the relative growth turn out when `C1CCC(C(CC2CCCCN2)C2CCCCC2)CC1.O=C(O)/C=C\C(=O)O` (stereo unspecified) was run?
Answer: The relative growth was 0.246.

Question: Which relative growth does the source give for `C[C@@]1(N)CCCC[C@@H]1C(=O)O` here?
Answer: Its relative growth is 0.931.

Question: `O=C(C[C@H]1C=C[C@@H](NC(=O)c2ccncc2)[C@H](CO)O1)NCc1ccncn1` was tested. Which relative growth did it give?
Answer: Its relative growth is 1.22.

Question: With `Cn1nccc1NC(=O)/C=C/C(=O)O` as the compound, how does the relative growth read?
Answer: Its relative growth is 1.1.

Question: `Cc1ncc(CO)c(CO)c1O` was tested. Which relative growth did it give?
Answer: Its relative growth is 0.913.

Question: `COc1cccc(C#Cc2ccc3c(c2)O[C@H](CN(C)C(C)=O)[C@@H](C)CN([C@H](C)CO)S3(=O)=O)c1` was tested. Which relative growth did it give?
Answer: The relative growth was 0.717.
